Patent US4313931A, “Fused dibenzo imidazolo compounds, compositions and use” (Boehringer Ingelheim KG, priority 1980, dated 1982)

Assay: in vivo
Conditions: po, mouse p.o.

SMILES: NC1=NCC2c3ccccc3Cc3ccccc3N12 (stereo not shown) [Example 1, 3-Amino-9,13b-dihydro-1H-dibenzo[c,f]imidazo[1,5-a]azepine hydrobromide]
- LD50: 325 mg/kg

Structures can show the parent of a compound that is named as a salt.
